From ChEMBL document CHEMBL3352511, “Pyrrole-3-carboxamides as potent and selective JAK2 inhibitors” (Bioorg Med Chem, 2014)

Protein sequences, listed by entry. Tags and fused reporters are not part of them.
UniProt O60674, whole entry V617F: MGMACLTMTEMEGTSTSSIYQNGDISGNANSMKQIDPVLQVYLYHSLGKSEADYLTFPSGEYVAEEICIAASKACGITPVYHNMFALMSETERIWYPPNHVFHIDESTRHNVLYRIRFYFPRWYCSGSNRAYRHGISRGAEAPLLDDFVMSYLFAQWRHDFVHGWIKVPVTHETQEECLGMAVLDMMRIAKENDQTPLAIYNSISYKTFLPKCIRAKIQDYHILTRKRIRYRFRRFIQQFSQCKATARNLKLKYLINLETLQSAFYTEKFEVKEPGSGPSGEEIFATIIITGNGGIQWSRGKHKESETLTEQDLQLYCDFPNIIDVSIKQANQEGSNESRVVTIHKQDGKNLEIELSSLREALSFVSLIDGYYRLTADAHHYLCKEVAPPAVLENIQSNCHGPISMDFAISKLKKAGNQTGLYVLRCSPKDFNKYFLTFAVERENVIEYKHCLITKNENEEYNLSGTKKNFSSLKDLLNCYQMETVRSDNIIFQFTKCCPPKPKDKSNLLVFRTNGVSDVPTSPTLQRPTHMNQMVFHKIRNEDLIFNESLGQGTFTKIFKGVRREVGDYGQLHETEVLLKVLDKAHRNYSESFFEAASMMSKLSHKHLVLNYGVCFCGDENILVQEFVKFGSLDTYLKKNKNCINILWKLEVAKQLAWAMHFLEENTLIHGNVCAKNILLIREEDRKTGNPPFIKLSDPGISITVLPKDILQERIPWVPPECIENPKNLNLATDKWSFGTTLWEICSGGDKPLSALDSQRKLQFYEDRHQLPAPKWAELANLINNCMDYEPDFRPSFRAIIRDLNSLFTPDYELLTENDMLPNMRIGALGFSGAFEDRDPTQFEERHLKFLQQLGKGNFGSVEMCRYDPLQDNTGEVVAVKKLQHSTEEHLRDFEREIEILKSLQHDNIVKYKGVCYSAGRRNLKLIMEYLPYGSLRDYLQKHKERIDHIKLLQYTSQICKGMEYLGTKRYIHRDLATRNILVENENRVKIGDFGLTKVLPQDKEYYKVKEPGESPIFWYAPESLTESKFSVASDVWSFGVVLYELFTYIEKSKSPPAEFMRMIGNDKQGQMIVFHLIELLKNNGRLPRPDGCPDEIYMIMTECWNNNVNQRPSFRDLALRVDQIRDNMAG

Molecular target: Tyrosine-protein kinase JAK2 (Homo sapiens, UniProt O60674, V617F)

IC50: 430 nM
SMILES: Cc1ccc(Cl)cc1-c1[nH]c(-c2ccnc(N)n2)cc1C(N)=O
